1 molecule from patent publication US20050058651A1 (published 2005) can be followed below.

The assay has as its target T1, carcinoembryonic antigen (CEA) (UniProt P06731 35-685, limits assumed, 125I label in the phage-lift and cell binding assays; unlabeled soluble CEA in the blot overlay).
T1 construct: also called soluble CEA; 125I labeled CEA
T1 sequence (looked up): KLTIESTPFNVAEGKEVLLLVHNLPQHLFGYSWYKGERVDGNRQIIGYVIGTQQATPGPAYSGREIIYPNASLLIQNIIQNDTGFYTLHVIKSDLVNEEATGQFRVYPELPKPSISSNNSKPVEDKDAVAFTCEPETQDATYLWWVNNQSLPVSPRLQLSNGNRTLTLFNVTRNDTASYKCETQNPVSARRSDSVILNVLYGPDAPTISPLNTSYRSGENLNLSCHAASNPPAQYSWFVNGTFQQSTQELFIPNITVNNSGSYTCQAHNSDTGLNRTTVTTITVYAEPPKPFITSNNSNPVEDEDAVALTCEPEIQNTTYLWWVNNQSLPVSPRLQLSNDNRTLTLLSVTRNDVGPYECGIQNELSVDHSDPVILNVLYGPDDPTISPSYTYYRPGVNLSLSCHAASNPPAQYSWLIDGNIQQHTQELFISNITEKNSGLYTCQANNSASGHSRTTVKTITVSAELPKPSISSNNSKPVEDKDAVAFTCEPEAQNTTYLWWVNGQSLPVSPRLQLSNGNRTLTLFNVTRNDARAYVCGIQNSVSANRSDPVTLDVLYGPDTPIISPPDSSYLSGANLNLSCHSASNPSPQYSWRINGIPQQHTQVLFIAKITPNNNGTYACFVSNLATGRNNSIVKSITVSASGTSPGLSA
Kind of assay: blot overlay: SDS/PAGE, PVDF membrane exposed to soluble CEA, then anti-CEA antibody. How it is done: FIG. 4 is a Western blot of rat hnRNP M4 protein expressed in E coli showing CEA binding. Rat cDNA corresponding to hnRNP M4 ORF was placed into a prokaryotic expression vector pGEX3T-4 allowing production of a GST-hnRNP M4 fusion protein. The Kupffer cell lysate and pGEX-4T-3/hnRNP M4 fusion proteins (2 clones) were subjected to SDS/PAGE and transferred into the PVDF membrane. This membrane was exposed to the soluble 1 μM CEA followed by the anti-CEA antibody. […] Line 4 corresponds to a negative control that is a pGEX3T-4 vector without the hnRNP M4 cDNA.
To further substantiate this finding and to estimate the molecular mass of the encoded protein, the cDNA corresponding to hnRNP M4 ORF was placed into a prokaryotic expression pGEX system allowing production of a GST-hnRNP M4 fusion protein. A series of pGEX vectors were designed for inducible, high level intracellular expression of the cDNA as a fusion protein with Schistosoma japonicum GST protein (Amersham Pharmacia Biotech, Piscataway, N.J.). The hnRNP M4 cDNA was inserted into pGEX-4T-3 vector to maintain the proper reading frame. The fusion protein was obtained as described below. The Kupffer cell lysate and pGEX-4T-3/hnRNP M4 fusion proteins (2 clones) were subjected to SDS/PAGE and transferred to a PVDF membrane (FIG. 4). […] A single 80 kD band was determined in Kupffer cells and in the fusion proteins. […]

B1: GST from pGEX-4T-3 vector without the hnRNP M4 cDNA (negative control) (other, Schistosoma japonicum, UniProt P08515 1-218, looked up)
chain: MSPILGYWKIKGLVQPTRLLLEYLEEKYEEHLYERDEGDKWRNKKFELGLEFPNLPYYIDGDVKLTQSMAIIRYIADKHNMLGGCPKERAEISMLEGAVLDIRYGVSRIAYSKDFETLKVDFLSKLPEMLKMFEDRLCHKTYLNGDHVTHPDFMLYDALDVVLYMDPMCLDAFPKLVCFKKRIEAIPQIDKYLKSSKYIAWPLQGWQATFGGGDHPPK
notes: also called empty vector; vector alone
Consider B1, for which the binding result was “no binding (tested: 1 µg/ml CEA)”.
